Measured values published in patent publication US5192507A (priority 1991, dated 1993).

What was measured:
opiate receptor (OpR) [1] = format: binding, rat
opiate receptor (OpR) [2] = format: binding, rat; remark: listed apart in the source

Structure (SMILES): C=CCN1CC[C@]23c4c5ccc(O)c4O[C@H]2C(=O)CC[C@@]3(O)[C@H]1C5 [Naloxone]
- Δ% (difference between resistance changes of test and control chips) (opiate receptor (OpR) [1]): 17%
- ΔK.OMEGA. (change in resistance across the biosensor circuit) (opiate receptor (OpR) [1]): -147
- pmol Bound/mg Protein (opiate receptor (OpR) [2]): 0.020
